# Source: PubChem BioAssay (NCI)
# The list shows a part of the results, in another mix than the full data.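 Plates (96-well) were seeded with cells, treated with compound at one concentration, and incubated for 48 hours before percent growth was determined.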 The source made the active and inactive calls. Rule for the calls: active = growth percent below 10; inactive = the rest.
# Assays:
# Assay in all cases: NCI-60 one-dose screen, 48 h (100 = growth as untreated, 0 = no growth, -100 = all killed)
# Conditions in all cases: 10 µM
# NCI-H23 lung = tested on: NCI-H23 lung
# NCI-H226 lung = tested on: NCI-H226 lung
# NCI-H322M lung = tested on: NCI-H322M lung
# NCI-H460 lung = tested on: NCI-H460 lung
# HOP-92 NSCLC = tested on: HOP-92 NSCLC
# NCI-H522 lung = tested on: NCI-H522 lung
# A549/ATCC NSCLC = tested on: A549/ATCC NSCLC
# 786-0 renal = tested on: 786-0 renal
# COLO 205 colon = tested on: COLO 205 colon
# DU-145 prostate = tested on: DU-145 prostate
# K-562 leukemia = tested on: K-562 leukemia
# MALME-3M melanoma = tested on: MALME-3M melanoma
# MDA-MB-231 breast = tested on: MDA-MB-231 breast
# RXF 393 renal = tested on: RXF 393 renal
# SF-295 CNS = tested on: SF-295 CNS
# SF-539 CNS = tested on: SF-539 CNS
# UACC-257 melanoma = tested on: UACC-257 melanoma
# M14 melanoma = tested on: M14 melanoma
# HOP-62 NSCLC = tested on: HOP-62 NSCLC
# SF-268 CNS = tested on: SF-268 CNS
SMILES,growth (NCI-H23 lung),growth (NCI-H226 lung),growth (NCI-H322M lung),growth (NCI-H460 lung),growth (HOP-92 NSCLC),growth (NCI-H522 lung),growth (A549/ATCC NSCLC),growth (786-0 renal),growth (COLO 205 colon),growth (DU-145 prostate),growth (K-562 leukemia),growth (MALME-3M melanoma),growth (MDA-MB-231 breast),growth (RXF 393 renal),growth (SF-295 CNS),growth (SF-539 CNS),growth (UACC-257 melanoma),growth (M14 melanoma),growth (HOP-62 NSCLC),growth (SF-268 CNS)
Cc1ccc(CN(CCCl)CCCl)cc1,inactive: 90%,inactive: 84.8%,inactive: 94.3%,inactive: 92.8%,inactive: 84.4%,inactive: 72.4%,inactive: 95.1%,inactive: 96.2%,inactive: 96%,inactive: 110%,inactive: 98.9%,inactive: 87.1%,inactive: 107%,inactive: 97.4%,inactive: 100%,inactive: 87.6%,inactive: 106%,inactive: 89.2%,,
CC1(C)NC(=O)N(CCN(CCCl)CCCl)C1=O,inactive: 109%,inactive: 101%,inactive: 91.8%,inactive: 104%,,,,inactive: 99.9%,inactive: 106%,inactive: 118%,inactive: 108%,inactive: 93.1%,inactive: 115%,inactive: 112%,inactive: 98.2%,inactive: 113%,,inactive: 105%,inactive: 108%,inactive: 113%
Cc1ccccc1CN(CCCl)CCCl,inactive: 94.2%,inactive: 81.2%,inactive: 102%,inactive: 97.3%,inactive: 87%,inactive: 69%,inactive: 97.6%,inactive: 108%,inactive: 101%,inactive: 107%,,inactive: 104%,inactive: 119%,inactive: 98.8%,inactive: 111%,inactive: 102%,inactive: 95.4%,inactive: 95.1%,,
BrCCN(CCBr)CCCN(CCBr)CCBr,,inactive: 100%,,inactive: 106%,inactive: 94.3%,inactive: 74.4%,inactive: 102%,inactive: 101%,inactive: 102%,inactive: 106%,inactive: 103%,inactive: 93.3%,inactive: 115%,inactive: 105%,inactive: 96.9%,inactive: 104%,inactive: 94.8%,inactive: 97.2%,inactive: 98.1%,inactive: 94.2%
[O-][n+]1onc(-c2ncon2)c1-c1ncon1,inactive: 96.2%,,inactive: 99.9%,inactive: 109%,inactive: 101%,active: -74.2%,inactive: 104%,inactive: 97.7%,active: -24.4%,inactive: 97.8%,inactive: 33.8%,active: -46.4%,inactive: 112%,inactive: 86.2%,inactive: 98.2%,inactive: 109%,inactive: 100%,inactive: 86.3%,inactive: 107%,inactive: 93.8%
COc1cc(N(CCCl)CCCl)cc(OC)c1OC,inactive: 86.4%,inactive: 84.5%,inactive: 114%,inactive: 77.8%,inactive: 91.9%,inactive: 92%,inactive: 80.6%,inactive: 98.6%,inactive: 84.4%,inactive: 102%,inactive: 96.6%,inactive: 99.2%,inactive: 86.3%,,inactive: 94.8%,inactive: 92.8%,,inactive: 97.5%,inactive: 91.6%,inactive: 84.7%
NC(Cc1ccccc1N(CCCl)CCCl)C(=O)O (configuration not stated),inactive: 70%,inactive: 77.4%,inactive: 84%,inactive: 23.3%,,inactive: 91%,,inactive: 90.9%,inactive: 82.7%,inactive: 86.8%,inactive: 86.5%,inactive: 35.2%,inactive: 104%,,active: -10.4%,inactive: 38%,,inactive: 81.1%,inactive: 77.8%,inactive: 63.7%
